# Measured values: patent US20230174933A1, “METHODS OF MAKING CHIMERIC ANTIGEN RECEPTOR-EXPRESSING CELLS” (Novartis AG, priority 2020, published 2023)
# What was measured:
# [1] = system: T cells activated with αCD3αCD28 beads; assay: Fold expansion, cell size and viability of cytokine treated T cells after TCR engagement; assay type: cell-based; details: T cells activated with αCD3αCD28 beads at day 0 in the presence of cytokine
# Text: FIG. 12: Fold expansion of cytokine treated T cells after TCR engagement. T cells were activated with αCD3αCD28 beads at day 0 in the presence of indicated cytokines and then monitored for cell numbers at indicated time points.
# T cells were activated with αCD3αCD28 beads at day 0 in the presence of indicated cytokines and then monitored for cell size (FIG. 13A) and viability (FIG. 13B) at indicated time points.
# T cells = assay: T cell expansion with cytokines after αCD3/αCD28 bead stimulation; assay type: cell-based; details: αCD3/αCD28 bead stimulated T cells plus cytokine
# Procedure: Previously frozen T cells were thawed and contacted with αCD3/αCD28 dynal beads (cell to bead ratio of 1 to 3) in the presence of indicated cytokines at day 0. From day 3, twice more T cell growth media (RPMI1640, 10% FBS, 2 mM L-glutamin, 100 μM non-essential amino acids, 1 mM sodium pyruvate, 10 mM Hepes, 55 μM β-mercaptoethanol, 10% FBS, and 100 U/ml of penicillin-streptomycin) was added to the plate with indicated cytokines (without cytokine, rhIL2 (50 IU/ml, Novartis), IL6 (long/ml, R&D systems), IL7 (long/ml, Peprotech), IL15 (long/ml, Peprotech), and IL21 (long/ml, Peprotech)) at day 3, 5, 6, 9, 12, 15, and 18. Cells treated without cytokine, IL6, or IL21 were cultured until day 18 and cells treated with IL2, IL7, or IL15 were cultured until day 25.
# Cells were harvested at indicated time points and then stained with live/dead dye (eFluro780, eBioscience), CD3 (BioLegend, clone#: OKT3), CD4 (BioLegend, clone#: OKT4), CD8 (BD Bioscience, clone#: RPA-T8), CD45RO (BioLegend, clone#: UCHL1), CCR7 (BioLegend, clone#: G043H7), CD27 (BD Horizon, clone#: L128), CD127 (BioLegend, clone#: A019D5), CD57 (BioLegend, clone#: HCD57), CD126 (BioLegend, clon#: UV4), and CD130 (R&D Systems, clone#: 28126) antibodies. The cells were acquired by FACS Fortessa and then FlowJo program was used for data analysis.
substance,measurement,setting,value
IL2: cytokine,cell size,[1],did not affect
same,viability,[1],did not affect
same,T cell expansion,T cells,enhanced T cell expansion
